Screening data from PubChem BioAssay.
DT40 TDP1 CPT = growth inhibition of DT40 Tdp1-/-;hTDP1 cells with camptothecin (screen for TDP1 inhibitors); actives 12% (n = 420,000); chicken DT40 Tdp1-/-;hTDP1 cells + 20 nM CPT, ATP luminescence, 48 h; Potency, µM (doses to about 46.2 µM), inactives show at the highest dose activity change, negative = growth inhibition, usual class: inhibitors; note: potency is the fitted concentration of half-maximal effect; % is set by controls: 0 for no effect and ±100 for the full control effect; nearly all actives have a fitted effect of over 55% in size
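Chicken DT40 Tdp1-/- cells stably complemented with human TDP1 were seeded at 400 cells/well in medium containing 20 nM camptothecin, exposed to pin-transferred compounds, and grown at 37 °C for at least 48 hr. Viability was read as ATP luminescence.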
miR-21 reporter = raises the signal of a miR-21 reporter; Potency, µM (doses to about 38.3 µM), inactives show top-dose reporter change, positive = more light; HeLa miR-21 FLuc reporter, luciferase, 48 h; AID 2288; 340,000 tested, under 10 active; active = well fitted rising curve with a large enough effect; inconclusive = small, poorly fitted or top-dose-only effect; inactive = no such curve, though single readings can be large or run the other way;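 further: % of control where 0% means no effect; miR-21 action dims this reporter so a rising signal means less miR-21 action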
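Compounds were titrated across several concentrations (up to approximately 40 uM) and incubated 48 hours with HeLa miR-21-FLuc reporter cells (miR-21 target sequence downstream of FLuc, endogenous miR-21). Readout was firefly luciferase luminescence after lytic detection reagent.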
TDP1 block = inhibitors of human tyrosyl-DNA phosphodiesterase TDP1. Q9NUW8. recombinant TDP1, AlphaScreen DNA substrate cleavage. Potency, µM (series often up to 130 µM), inactives show top-dose activity change, negative = inhibition, actives largely listed as inhibitors. actives 0.28% (n = 350,000). AID 485290; note: potency is the fitted concentration of half-maximal effect; % is set by controls: 0 for no effect and ±100 for the full control effect; nearly all actives have a fitted effect of over 40% in size
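Recombinant human Tdp1 (E. coli-expressed, 1 nM final) preincubated with compounds 15 min at room temperature, then 5'-biotin/3'-phosphotyrosine-FITC DNA substrate (15 nM final) added for 5 min. AlphaScreen beads (10 ug/ml final) added 10 min; cleavage lowers signal.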
uPA surface inh = inhibitors of cell surface uPA generation. actives 0.31% (n = 330,000). AID 540303. cell surface uPA generation assay, qHTS. Potency, µM (series often up to 38.3 µM), for the others: at the top dose activity change, negative = inhibition, most hits filed as inhibitors; active = well fitted inhibition curve with a large enough effect; inconclusive = small, poorly fitted or top-dose-only effect; inactive = no such curve, though single readings can be large or run the other way; tested in mouse RAW 264.7 cells; note: potency is the fitted concentration of half-maximal effect; % is set by controls: 0 for no effect and ±100 for the full control effect; nearly all actives have a fitted effect of over 55% in size
TDP1 cell noCPT = qHTS for Inhibitors of human tyrosyl-DNA phosphodiesterase 1 (TDP1): qHTS in cells in absence of CPT. AID 686978, 2013. Potency, µM (doses to about 46.2 µM), for inactives: top-dose activity change, negative = growth inhibition, hits mostly inhibitors. DT40 Tdp1-/- hTDP1 cells, no CPT, ATP luminescence, 48 h. actives 15% (n = 420,000); note: potency is the fitted concentration of half-maximal effect; % is set by controls: 0 for no effect and ±100 for the full control effect; nearly all actives have a fitted effect of over 55% in size
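Readout: luminescence from CellTiter-Glo after 30 min in the dark at RT. Cells: DT40 Tdp1-/- with stable hTDP1, 400/well. Exposure: compounds alone, ≥48 hr, 37 °C.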
Active calls of the source: *; ? = inconclusive; nt = no result. The list is not random: actives were taken first. Their share in the collection is about 16%. Unless noted, calls come from the whole dose curve; as a rule, active = well fitted curve in the direction sought with a large enough effect; inconclusive = small, poorly fitted or top-dose-only effect, or another doubt; inactive = no such curve, though single readings can be large; an effect the other way counts as inactive or inconclusive.

| # | molecule | DT40 TDP1 CPT | miR-21 reporter | TDP1 block | uPA surface inh | TDP1 cell noCPT |
| --- | --- | --- | --- | --- | --- | --- |
| 1 | COc1cc(/C=N/Nc2snc(SC)c2C#N)ccc1O | 4µM* | -28% | 2% | nt | 3.2µM* |
| 2 | CC(/C=N/Nc1nc2ccccc2[nH]1)=C\c1ccccc1 | 15µM* | -31% | 7% | ? | ? |
| 3 | CCN(CC)c1ccc(/C=N/Nc2nc3ccccc3[nH]2)cc1 | 3.3µM* | ? | 12% | ? | 4.6µM* |
| 4 | COc1cc(/C=N/Nc2nc3ccccc3[nH]c2=O)ccc1O | -7% | -18% | -1% | 4% | -7% |
| 5 | COc1cc(/C=N/Nc2nc3ccccc3[nH]2)ccc1O | 6.5µM* | -25% | 5% | ? | 4.6µM* |
| 6 | Cn1nnc2cc(C(=O)NCc3ccco3)ccc21 | -6% | -11% | -7% | 1% | -13% |
| 7 | COc1ccccc1CC(=O)c1ccccc1OC | -14% | nt | nt | -3% | -29% |
| 8 | COc1cc(/C=N/Nc2nc3ccccc3[nH]2)cc(OC)c1O | 4.1µM* | -5% | 11% | -10% | 3.7µM* |
| 9 | COc1cc(/C=N/Nc2nc3ccccc3[nH]2)cc(Br)c1OCC(=O)N(C)C | ? | -14% | 10% | -9% | 18µM* |
| 10 | COc1cccc(/C=N/Nc2nc3ccccc3n3cnnc23)c1O | 5.8µM* | -1% | 8% | -9% | 5.8µM* |
| 11 | COc1cccc(/C=N/Nc2nc3ccccc3[nH]2)c1O | 18µM* | 15% | 12% | ? | 23µM* |
| 12 | COC(=O)c1ccc(/C=N/Nc2nc3ccccc3[nH]2)cc1 | ? | -47% | 3% | -8% | ? |
| 13 | COc1cccc(/C=N/Nc2nc3ccccc3[nH]2)c1OC | 7% | -65% | 5% | -10% | -27% |
| 14 | CC(=O)c1cc2c(cc1NC(=O)Cn1cnc3ccccc3c1=O)OCO2 | 13% | nt | 0% | 4% | 8% |
| 15 | COc1cc(/C=C(/C(=O)c2cccs2)c2nc3ccccc3[nH]2)cc(OC)c1O | ? | ? | 8% | -10% | 16µM* |
| 16 | O=C(COc1ccc(Br)cc1F)N1CCN(c2ncccn2)CC1 | 4% | -2% | 0% | -3% | ? |
| 17 | O=C(/C=C/c1ccc([N+](=O)[O-])s1)N1CCCCC1 | ? | 29% | 2% | -14% | 12µM* |
| 18 | O=C(/C=C/c1ccc([N+](=O)[O-])s1)N1CCN(c2ccccc2)CC1 | ? | -2% | 1% | ? | 16µM* |
| 19 | O=C(/C=C/c1cccs1)N1CCCCC1 | -11% | -52% | -3% | -4% | -16% |
| 20 | O=C(/C=C/c1ccc([N+](=O)[O-])s1)N1CCCC1 | 21µM* | ? | 6% | 11µM* | 10µM* |
| 21 | CC1CN(C(=O)/C=C/c2ccc([N+](=O)[O-])s2)CC(C)O1 (centres undefined) | ? | ? | 5% | -18% | 15µM* |
| 22 | CCOC(=O)c1c(NC(NC(=O)C(C)C)C(Cl)(Cl)Cl)sc2c1CCC2 (centres undefined) | 15µM* | 30% | 2% | -3% | 16µM* |
| 23 | NC(=O)c1ccc2c(=O)n3c(-c4cc(Cl)c(N)c(Cl)c4)csc3nc2c1 | 16µM* | 21% | 79µM* | 5µM* | 18µM* |
| 24 | Cc1csc2nc3cc(C(N)=O)ccc3c(=O)n12 | -9% | -11% | 2% | 5% | -4% |
| 25 | COc1ccc(-c2csc(NC(=O)COC(=O)C3=COCCO3)n2)cc1 | 3% | -33% | 3% | -6% | -16% |

One compound at a time, as listed above. Order of values: DT40 TDP1 CPT	miR-21 reporter	TDP1 block	uPA surface inh	TDP1 cell noCPT
O=C(COc1ccc(Br)cc1F)N1CCN(c2ncccn2)CC1 across the screens: 4%	-2%	0%	-3%	?
COc1cc(/C=N/Nc2nc3ccccc3[nH]2)ccc1O across the screens: 6.5µM*	-25%	5%	?	4.6µM*
COc1cccc(/C=N/Nc2nc3ccccc3n3cnnc23)c1O across the screens: 5.8µM*	-1%	8%	-9%	5.8µM*
CCN(CC)c1ccc(/C=N/Nc2nc3ccccc3[nH]2)cc1 across the screens: 3.3µM*	?	12%	?	4.6µM*

Remaining list, next part.
| # | molecule | DT40 TDP1 CPT | miR-21 reporter | TDP1 block | uPA surface inh | TDP1 cell noCPT |
| --- | --- | --- | --- | --- | --- | --- |
| 26 | COc1cccc(NC(=O)CN(C)C(=O)c2cc(-c3cccc(Br)c3)nc3ccccc23)c1 | ? | nt | nt | -11% | 16µM* |
| 27 | COc1cccc(NC(=O)CN(C)C(=O)c2cc(-c3ccc(C)o3)nc3ccccc23)c1 | ? | nt | 3% | -21% | 21µM* |
| 28 | COc1cccc(NC(=O)CN(C)C(=O)c2cc(-c3ccccc3)nc3ccc(C)cc23)c1 | 13µM* | nt | nt | 2% | 10µM* |
| 29 | COc1cccc(NC(=O)c2cc(-c3ccc(C)o3)nc3ccccc23)c1 | ? | 1% | nt | 0% | ? |
| 30 | O=C(c1cccc(F)c1)N1CCC2(CC1)CN(c1ccncc1)C2 | -5% | nt | nt | nt | -26% |
| 31 | O=C(Nc1ccccc1)N1CCC2(CC1)CCN(C(=O)c1ccco1)CC2 | -22% | nt | nt | nt | ? |
| 32 | CC(C)CN1CC2(CCN(C(=O)c3ccco3)CC2)C1 | 2% | nt | nt | nt | -7% |
| 33 | O=C(c1ccncc1)N1CCC2(CC1)CN(c1ccc(-c3ccccc3)cc1)C2 | ? | nt | nt | nt | 7.3µM* |
| 34 | O=C(c1ccco1)N1CCC2(CC1)CCN(C(c1ccccc1)c1ccccc1)CC2 | ? | nt | nt | nt | 21µM* |
| 35 | O=C(c1ccco1)N1CCC2(CC1)CN(c1ccc(-c3ccccc3)cc1)C2 | 7.3µM* | nt | nt | nt | 9.2µM* |
| 36 | COC(=O)N1CCC2(CC1)CN(c1ccc(-c3ccccc3)cc1)C2 | 6% | nt | nt | nt | -23% |
| 37 | O=C(c1ccco1)N1CCC2(CC1)CN(c1cccc(-c3ccccc3)c1)C2 | 23µM* | nt | nt | nt | 13µM* |
| 38 | Cc1ccc(C2CCN(C(=S)NC(C)C)C2)cc1 (centres undefined) | ? | -11% | 5% | 3% | ? |
| 39 | O=C(c1ccco1)N1CCC2(CC1)CCN(c1ccncc1)CC2 | ? | nt | nt | nt | 21µM* |
| 40 | O=C(c1ccco1)N1CCC[C@@]2(CCN(c3ccncc3)C2)C1 | 13% | nt | nt | nt | -30% |
| 41 | CCc1ccc(C2c3[nH]c4ccccc4c3CCN2C(=O)c2cc[n+]([O-])cc2)cc1 (centres undefined) | 26µM* | 25% | -10% | ? | 16µM* |
| 42 | CCN(CC)c1ccc(C(=O)N2CCc3c([nH]c4ccccc34)C2c2ccc(F)cc2)cc1 (centres undefined) | 2.9µM* | -2% | 5% | nt | ? |
| 43 | CN(C(=O)CS(=O)(=O)c1cn(CC(=O)N2CCOCC2)c2ccccc12)c1ccccc1 | -1% | -1% | 1% | 3% | 0% |
| 44 | O=C(c1cc2cc(Cl)ccc2oc1=O)N1CCN(c2ccccn2)CC1 | -2% | 0% | nt | -3% | 0% |
| 45 | CCOC(=O)c1sc(-c2ccc(OC)cc2)cc1NC(C)=O | -1% | -22% | 2% | 7% | ? |
| 46 | COCCn1c(C)cc(C(=O)CSc2cc(C)c3ccc(OC)cc3n2)c1C | ? | -3% | 8% | -7% | 16µM* |
| 47 | COCC(C)n1c(C)cc(C(=O)CSc2nc(C)c(C)c(C)n2)c1C (centres undefined) | ? | -12% | nt | 2% | 15µM* |
| 48 | COCC(C)n1c(C)cc(C(=O)COC(=O)c2n[nH]c3ccccc23)c1C (centres undefined) | ? | -35% | 9% | -6% | 26µM* |
| 49 | COCCn1c(C)cc(C(=O)CSc2nc(C)c(C)c(C)n2)c1C | 29µM* | 2% | 1% | 4% | 23µM* |
| 50 | COCCCn1c(SCC(=O)OC2CCCCC2)nnc1-c1cccs1 | 0% | -4% | 9% | nt | -2% |
| 51 | O=C(Nc1ccccc1C(F)(F)F)c1ccc2nccnc2c1 | -26% | -5% | 2% | -14% | -12% |

Part of the list above, with two lines to a compound.
Below each SMILES: DT40 TDP1 CPT, miR-21 reporter, TDP1 block, uPA surface inh, TDP1 cell noCPT
#43 CN(C(=O)CS(=O)(=O)c1cn(CC(=O)N2CCOCC2)c2ccccc12)c1ccccc1
→ -1%, -1%, 1%, 3%, 0%
#44 O=C(c1cc2cc(Cl)ccc2oc1=O)N1CCN(c2ccccn2)CC1
→ -2%, 0%, nt, -3%, 0%
